Source: PubChem (National Center for Advancing Translational Sciences (NCATS))
Most compounds without a hit are left out; they make up all but 13% or so of the library.
ALDH1A1 inh – inhibitors of human aldehyde dehydrogenase 1A1. Purified ALDH1A1, NADH fluorescence, propionaldehyde substrate. 7.3% of 220,000 active. Potency, µM (top dose mostly 75.3 µM), for inactives: at the top dose activity, negative = inhibition, usual class: inhibitors. P00352. AID 1030; active = well fitted inhibition curve with a large enough effect, not every such curve was filed as active; inconclusive = small, poorly fitted or top-dose-only effect, or another doubt; inactive = no such curve, though single readings can be large or run the other way;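 also: potency is read from the fitted curve at half-maximal effect; plate controls were no enzyme wells and a reference inhibitor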
Sfp PPTase inh – blocks B. subtilis Sfp PPTase activity. AID 1490. Q9F4F7. Biochemical Sfp PPTase activity, qHTS. hit rate 3.5% among 310,000. Potency, µM, for the others: max response, negative = inhibition, usual class: inhibitors; active = well fitted inhibition curve with a large enough effect; inconclusive = small, poorly fitted or top-dose-only effect, or another doubt; inactive = no such curve, though single readings can be large or run the other way;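 also: the enzyme is Sfp with the accession as filed and its product quenches rhodamine fluorescence; potency is read from the fitted curve at half-maximal effect; 0% = enzyme reaction without inhibitor and -100% = no enzyme wells; top concentration of the series not given in the record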
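After 15 min at room temperature with compound, 15 nM Sfp received 5 uM rhodamine-CoA plus 12.5 uM BHQ-2-ybbR (50 mM Hepes pH 7.6, 10 mM MgCl2). Rate came from the fluorescence difference over 30 min, ex 525/em 598 nm.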
Lamin A splicing – changes lamin A minigene splicing in HeLa cells; HeLa LMNA splicing GFP/RFP minigene ratio, 48 h; 0.01% of 200,000 active; AID 1487; Potency, µM (top dose mostly 46.1 µM), inactives show top-dose ratio change, negative = inhibition, usual class: inhibitors; active = well fitted inhibition curve with a large enough effect in the signal ratio, with a control signal flat, not every such curve was filed as active; inconclusive = small, poorly fitted or top-dose-only effect, or effect the other way, or a change in a side signal; the % refers to the signal ratio; also: potency is read from the fitted curve at half-maximal effect; % is scaled to controls: 0 for no effect and ±100 for the full control effect
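Read-out is the ratio of GFP to DsRed2 object intensity, acquired by 488 nm laser-scanning cytometry on HeLa lamin A-EGFP minigene reporter cells. Compound incubation 48 hrs at 37 °C in Opti-MEM with 2% FBS; DMSO 0.5% final.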
JMJD2E inh – blocks human JMJD2E demethylase activity; B2RXH2; Potency, µM (top dose mostly 57.1 µM), inactives show at the highest dose activity change, negative = inhibition, usual class: inhibitors; 1.6% of 230,000 active; AID 2147; JMJD2E catalytic domain, FDH-coupled NADH fluorescence (FDH is formaldehyde dehydrogenase);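 also: potency is read from the fitted curve at half-maximal effect; 0% = wells with enzyme and -100% = buffer wells without enzyme; nearly all actives have a fitted effect of over 50% in size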
miR-21 reporter – miR-21 reporter, rising signal; HeLa miR-21 FLuc reporter, luciferase, 48 h; Potency, µM (titrated, usually from 38.3 µM), without a hit: top-dose reporter change, positive = more light; AID 2288; 340,000 tested, under 10 active; active = well fitted rising curve with a large enough effect; inconclusive = small, poorly fitted or top-dose-only effect; inactive = no such curve, though single readings can be large or run the other way;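 further: % of control where 0% means no effect; miR-21 action dims this reporter so a rising signal means less miR-21 action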
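HeLa cells endogenously expressing miR-21, stably carrying CMV-driven firefly luciferase with a downstream miR-21 binding site, 2000 cells/well. Titrations up to approximately 40 uM, 48 hours; luciferase luminescence read.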
G9a inh – G9a (human) methyltransferase inhibition | G9a H3K9 monomethylation, AlphaScreen, 2 h | Potency, µM (highest dose often 102 µM), for the others: top-dose activity, negative = inhibition, most hits filed as inhibitors | 8.8% of 350,000 active; also: potency is read from the fitted curve at half-maximal effect; % is scaled to controls: 0 for no effect and ±100 for the full control effect; nearly all actives have a fitted effect of over 75% in size
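Methyltransferase reactions run at room temperature for 2 h (20 nM enzyme, 500 nM biotin-H3K9 peptide, 20 uM SAM) after a 15 min compound preincubation; product detected by AlphaScreen beads and anti-H3K9me1 antibody.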
* hit, by the source's call; u = inconclusive; x = not tested or not shown; [ ] = another dose, or the depositor's remark. Unless noted, calls follow the shape of the dose curve; as a rule, active = well fitted curve in the direction sought with a large enough effect; inconclusive = small, poorly fitted or top-dose-only effect, or another doubt; inactive = no such curve, though single readings can be large; an effect the other way counts as inactive or inconclusive.

| # | Structure | ALDH1A1 inh | Sfp PPTase inh | Lamin A splicing | JMJD2E inh | miR-21 reporter | G9a inh |
| --- | --- | --- | --- | --- | --- | --- | --- |
| 1 | COCCn1c(C)cc(/C=C(\C#N)C(=O)OCC(=O)Nc2ccc(S(N)(=O)=O)cc2)c1C | x | x | x | x | x | 40µM* |
| 2 | O=c1oc2cc(Oc3ccc(C(F)(F)F)cc3[N+](=O)[O-])ccc2c2c1CCC2 | 16µM* | -3% | -1% | u | -9% | 2%[59 µM] |
| 3 | O=C(Cc1ccc(S(=O)(=O)N2CCOCC2)s1)Nc1ccccc1N1CCCC1 | x | u | x | x | 0% | x |
| 4 | Cc1noc(C)c1CSCC(=O)Nc1cc(Cl)ccc1N1CCCCC1 | x | x | x | x | x | 7% |
| 5 | O=C(Cc1ccc(S(=O)(=O)N2CCOCC2)s1)Nc1ccc(N2CCOCC2)cc1 | -10% | 6% | -26%[46 µM] | -7% | -45% | u |
| 6 | O=C(Cc1ccc(S(=O)(=O)N2CCOCC2)s1)Nc1cc(C(F)(F)F)ccc1N1CCCC1 | x | x | x | x | x | 50µM* |
| 7 | Cc1noc(C)c1CSCC(=O)Nc1cc(C(F)(F)F)ccc1N1CCCCC1 | x | x | x | x | x | 40µM* |
| 8 | O=C(CCc1ccccc1)NC(=S)Nc1cc(C(F)(F)F)ccc1N1CCOCC1 | u | 1% | 7%[0.0737 µM] | 0% | 5% | 15%[0.501 µM] |
| 9 | CN(C)S(=O)(=O)c1ccc(NC(=O)Cc2ccc(S(=O)(=O)N3CCOCC3)s2)cc1 | -11% | -1% | -28%[46 µM] | -3% | 0% | 56µM* |
| 10 | CC(C)CC(=O)NC(=S)Nc1cc(C(F)(F)F)ccc1N1CCOCC1 | -6% | 18% | 3% | 0% | -8% | 79µM* |
| 11 | COc1ccc(OCCn2c(C)nc3cc(C)c(C)cc32)cc1 | x | x | 2%[46 µM] | x | -13% | u |
| 12 | CCC(=O)OCC(=O)[C@@]1(OC(=O)CC)[C@H](C)C[C@@H]2[C@@H]3[C@H]([C@@H](O)C[C@@]21C)[C@]1(C)C=CC(=O)C=C1C[C@@H]3Cl | 0%[20.9 µM] | 17% | u | 8%[25.5 µM] | x | u |
| 13 | c1c[nH]c(CN2CCN(Cc3ncc[nH]3)CC2)n1 | 1%[13.5 µM] | x | x | x | x | x |
| 14 | Cc1cccc(Oc2ccc(NC(=O)c3ccccc3C(=O)O)cc2)c1 | x | 11% | x | -22% | 2% | x |
| 15 | N#Cc1ccc(Oc2ccc(NC(=O)C3CC=CCC3C(=O)O)cc2)cc1 (configuration not stated) | 0.5µM* | 7% | 7%[46 µM] | -5% | 2% | 12% |

Profiles, looked up by structure. Order of screens: ALDH1A1 inh, Sfp PPTase inh, Lamin A splicing, JMJD2E inh, miR-21 reporter, G9a inh
`O=C(Cc1ccc(S(=O)(=O)N2CCOCC2)s1)Nc1ccccc1N1CCCC1` across the screens: x, u, x, x, 0%, x
`Cc1noc(C)c1CSCC(=O)Nc1cc(Cl)ccc1N1CCCCC1` across the screens: x, x, x, x, x, 7%
`O=C(Cc1ccc(S(=O)(=O)N2CCOCC2)s1)Nc1cc(C(F)(F)F)ccc1N1CCCC1` across the screens: x, x, x, x, x, 50µM*
`COCCn1c(C)cc(/C=C(\C#N)C(=O)OCC(=O)Nc2ccc(S(N)(=O)=O)cc2)c1C` across the screens: x, x, x, x, x, 40µM*
`O=C(CCc1ccccc1)NC(=S)Nc1cc(C(F)(F)F)ccc1N1CCOCC1` across the screens: u, 1%, 7%[0.0737 µM], 0%, 5%, 15%[0.501 µM]

Taken from above.
Result of #14 in Sfp PPTase inh: 11%
Result of #11 in Lamin A splicing: 2%[46 µM]
Result of #10 in ALDH1A1 inh: -6%

Further structures follow:
| # | Structure | ALDH1A1 inh | Sfp PPTase inh | Lamin A splicing | JMJD2E inh | miR-21 reporter | G9a inh |
| --- | --- | --- | --- | --- | --- | --- | --- |
| 16 | O=C(O)C1CC=CCC1C(=O)Nc1ccc2c(c1)CCC2 (configuration not stated) | x | 13% | x | x | -10% | x |
| 17 | Cc1cccc(Oc2ccc(NC(=O)C3CC=CCC3C(=O)O)cc2)c1 (configuration not stated) | 1.8µM* | 26% | -8%[46 µM] | 1% | -14% | 45µM* |
| 18 | Cc1ccc(C)c(-n2c(N)c(C(N)=O)sc2=S)c1 | -4% | -2% | 6% | -6% | 7% | u |
| 19 | CCCCNC(=O)c1sc(=S)n(-c2ccccc2OC)c1N | 8.9µM* | 45µM* | u | -10% | -10% | 16µM* |
| 20 | CCOc1ccccc1-n1c(N)c(C(N)=O)sc1=S | u | -18% | 11% | -2% | 0% | 35µM* |
| 21 | COc1ccc(Cl)cc1-n1c(N)c(C(N)=O)sc1=S | u | 16µM* | 16% | -6% | -4% | 8.9µM* |
| 22 | Cc1ccc(-n2c(N)c(C(N)=O)sc2=S)c(C)c1 | 7% | 20µM* | 9% | 5% | -27% | 8.9µM* |
| 23 | NC(=O)c1cc([N+](=O)[O-])ccc1NCc1ccccn1 | x | x | x | x | x | 3%[2.33 µM] |
| 24 | Cc1cccc(NC(=O)C2CCN(S(=O)(=O)c3ccc(F)cc3)CC2)c1C | x | x | x | x | -7% | -32%[59 µM] |
| 25 | CCn1c(N)c(C(N)=O)sc1=S | 8.9µM* | 14µM* | 12% | -10% | -5% | u |
| 26 | CCOc1ccccc1-n1c(=O)c2ccccc2c2ccccc2c1=O | 6% | 5% | -19% | 2% | -9% | 3.5µM* |
| 27 | CCOC(=O)c1sc(=S)n(Cc2ccccc2)c1N | -7% | -11% | u | 7% | -20% | u |
| 28 | CCOC(=O)c1sc(=S)n(-c2ccccc2OC)c1N | 3.2µM* | -63% | -10% | -9% | -9% | u |
| 29 | CCOc1ccccc1-n1c(SCC(=O)Nc2ccccc2C(=O)O)nc2ccccc2c1=O | x | -23% | x | x | -46% | 50µM* |
| 30 | Cc1ccccc1C | 3% | x | x | x | x | x |

(further entries)
| # | Structure | ALDH1A1 inh | Sfp PPTase inh | Lamin A splicing | JMJD2E inh | miR-21 reporter | G9a inh |
| --- | --- | --- | --- | --- | --- | --- | --- |
| 31 | CCC(C(=O)NCc1ccncc1)c1ccccc1 (configuration not stated) | 3% | 10% | 18%[9.22 µM] | -7% | 1% | 16% |
| 32 | COC(=O)c1sc(=S)n(-c2ccccc2OC)c1N | 7% | 12% | 12% | -1% | -5% | 35µM* |
| 33 | CC(=O)Nc1ccc(S(=O)(=O)N/N=C/c2ccc(C)o2)cc1 | x | 10% | x | x | 0% | 45µM* |
| 34 | Cc1cnc(NC(=O)/C=C/c2ccc(Br)o2)s1 | x | -27% | x | 4% | -26% | x |
| 35 | Cc1ccc(/C=C/C(=O)Nc2ccc(N(C)C)cc2)o1 | -12% | -26% | 1% | 0% | -48% | 4µM* |
| 36 | Cc1ccc(/C=C/C(=O)Nc2ncc(C)s2)o1 | u | 13µM* | -8% | u | -63% | 13µM* |
| 37 | CC(=O)NS(=O)(=O)c1ccc(NC(=O)/C=C/c2ccc(C)o2)cc1 | 13µM* | 5µM* | 17%[46 µM] | u | 3% | 22µM* |
| 38 | Cc1ccc(/C=C/C(=O)Nc2ccncc2)o1 | u | -77% | -2% | u | -12% | u |
| 39 | O=C(Nc1ccc(F)cc1F)c1ccc2c(c1)CCN2S(=O)(=O)c1ccc(Cl)cc1 | x | x | x | x | 12% | 0%[59 µM] |
| 40 | CC(=O)c1sc(NS(=O)(=O)c2ccc(C)cc2)nc1-c1ccccc1 | x | 9% | x | x | 7% | u |
| 41 | CN(C)c1ncc2nc(-c3cccc(C#N)c3)c(=O)n(C[C@H]3CCCO3)c2n1 | u | 17% | 3% | x | x | 30%[0.501 µM] |
| 42 | CCOC(=O)c1nnc(-c2ccc(C)cc2)nc1Sc1ccccc1Cl | 5% | 3% | -4% | 2% | -1% | u |
| 43 | CCOC(=O)c1nnc(-c2ccccc2)nc1Sc1c(Cl)cccc1Cl | 3% | -7% | u | 8% | 27% | 40µM* |
| 44 | CCOC(=O)c1nnc(-c2ccccc2)nc1NCc1ccc(Cl)cc1 | u | 50µM* | 4% | -1% | -3% | 24%[59 µM] |
| 45 | CCOc1ccc(N2C(=O)C3C(c4ccccc4F)NN(C(=O)c4ccc(C)cc4)C3C2=O)cc1 (configuration not stated) | -3% | 6% | u | -5% | -5% | 50µM* |

(continued)
| # | Structure | ALDH1A1 inh | Sfp PPTase inh | Lamin A splicing | JMJD2E inh | miR-21 reporter | G9a inh |
| --- | --- | --- | --- | --- | --- | --- | --- |
| 46 | Cc1ccc(C(=O)N2NC(c3ccc(F)cc3)C3C(=O)N(c4ccc(C)c(C)c4)C(=O)C32)cc1 (configuration not stated) | 5% | 3% | u | 0% | -14% | 56µM* |
| 47 | O=C(NCCc1csc(-c2cccnc2)n1)c1ccc(Br)o1 | 22µM* | 20µM* | -6% | -18% | -10% | 20µM* |
| 48 | O=C(NCCc1csc(-c2ccccc2)n1)c1ccc(Br)o1 | -15% | 12% | u | -3% | -1% | 1%[59 µM] |
| 49 | O=C(c1ccncc1)N1CCC2(CC1)CN(C(c1ccccc1)c1ccccc1)C2 | 14% | 6% | x | x | x | -2%[12.7 µM] |
